Numbering of substitutions follows the chain as printed.
B1: FPOX-20 (protein)
chain: MAPRANTKIIVVGGGGTMGSSTALHLLRAGYTPSNITVLDTYPIPSAQSAGYDLNKIFGISGANKPDLQLSLEAADMWKNDPLFKPFFHNVGQMDVSSTEEGIKKLRKRYQSLLRAGIGLEKTNFLLESEDEILAKAPHFTREQIKGWKGLFCGDGGWLAAAKAINAIGQFLKEQGVKFGFGEAGTFKKPLFADADEKTCIGVETVDGTKYYADKVVLAAGAWSSTLVDLEEQCVSKAWVFAHIQLTPAEAAAYKNTPVIYDGDYGFFIEPDENGIIKVCDEFPGFTHFKMHQPYGSPVPKLISVPRSHAKHPTDTYPHASEVTIKKAINRFLPRFNDKELFNRAMCWCTDTADANLLVCEHPRWKGFYLATGDSGHSFKLLPNIGKHVVELLEGRLESVFKDAWRWRPGSGDALKSRRAAPAKDLADMPGWRNEAKM
B2: FPOX-18B (protein)
chain: B1 chain with A75L, K108M, R115D
B3: FPOX-44 (protein)
chain: B1 chain with Y52H, P66H, A75F, K105R, K108R, A355S
B4: FPOX-41 (protein)
chain: B1 chain with P66H, A75F, K108R, A355S
B5: FPOX-40 (protein)
chain: B1 chain with P66H, A75F, K105R, A355S
B6: FPOX-18A (protein)
chain: B1 chain with S71C, A75L, K108M, R115D
B7: FPOX-43 (protein)
chain: B1 chain with S34T, P66H, A75F, K105R, K108R, A355S
B8: FPOX-42 (protein)
chain: B1 chain with P66H, A75F, K105R, K108R, A355S
B9: FPOX-32 (protein)
chain: B1 chain with P66H, A75F, D95E, K105R, K108R
B10: FPOX-39 (protein)
chain: B1 chain with P66H, A75F, D95E, A355S

Experiments:
[1] = target: T1, α-glycated hexapeptide Fru-Val-His-Leu-Thr-Pro-Glu
T1 chain: VHLTPE

[2] = target: hemoglobin A1c (in human hemocyte-derived hemolysate sample), P69905

Protein	Activity ratio with respect to FPOX-15 (FPOX-15 defined as 1) [1]	Activity ratio with respect to FPOX-18 (FPOX-18 defined as 1) [1]	Specific activity (mU/mg) [1] [mU/mg]	ΔAbs(reaction) (glycated hemoglobin oxidase activity) (absorbance, 660 nm/750 nm) [2]	Activity ratio with respect to FPOX-19 (FPOX-19 defined as 1) [1]
B1	7240	38	22.9	0.08	–
B2	1540	8.1	–	0.021	–
B3	25500	–	–	–	4.7
B4	24800	–	–	–	4.6
B5	21900	–	–	–	4
B6	1140	–	–	0.017	–
B7	24800	–	–	–	4.6
B8	25500	–	92.1	0.246	4.7
B9	17700	–	64.7	0.235	3.3
B10	19800	–	–	–	3.6

From US20160138073
